# Reference: PubChem BioAssay AID2599 (Sanford-Burnham Center for Chemical Genomics, 2010)
# By UniProt entry, the sequences of proteins in these tests, tags left out. Residues count along the entry.
# UniProt Q9GZR1, 628-1112 limits assumed: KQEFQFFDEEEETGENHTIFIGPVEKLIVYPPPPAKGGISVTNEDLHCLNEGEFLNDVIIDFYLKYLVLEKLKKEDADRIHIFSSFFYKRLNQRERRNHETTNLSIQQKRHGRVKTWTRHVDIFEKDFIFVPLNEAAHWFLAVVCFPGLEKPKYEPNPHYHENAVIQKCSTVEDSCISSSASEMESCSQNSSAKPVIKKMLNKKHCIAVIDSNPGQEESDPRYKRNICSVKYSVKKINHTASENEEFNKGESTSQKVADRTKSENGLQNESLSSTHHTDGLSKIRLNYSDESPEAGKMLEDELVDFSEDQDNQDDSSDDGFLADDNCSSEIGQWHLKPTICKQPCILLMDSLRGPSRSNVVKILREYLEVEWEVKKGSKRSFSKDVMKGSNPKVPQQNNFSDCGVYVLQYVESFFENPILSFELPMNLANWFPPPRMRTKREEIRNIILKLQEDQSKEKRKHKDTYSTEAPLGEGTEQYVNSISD
# This is a selection; strong and weak results do not stand in their true shares. Some of these compounds have results that are not shown, active ones among them. The source made the active and inactive calls.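 The calls were made as follows: active = inhibition above about 50% at the single tested dose (limit read from the data); inactive = the rest.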
# Target: Sentrin-specific protease 6 (Homo sapiens) (UniProt Q9GZR1)
# Test: inhibition of human SENP6 catalytic domain – biochemical, luminescence, uHTS, primary screen (AID 2599);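 also: plate controls were DMSO wells with enzyme for no effect and DMSO wells lacking enzyme for full effect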
# Details: Recombinant SENP6 catalytic domain, aminoluciferin luminescence; at 10 µM; active compounds read high
row,SMILES,inhibition
1,C=CCN1CCN(CCOC(=O)C(O)(c2ccccc2)c2ccccc2)CC1,inactive: 5.86%
2,O=C(NCC1(N2CCCCC2)CCCCC1)c1cc(F)c(F)cc1Cl,inactive: -8.69%
3,COc1ccc(C(=O)NCC2(N(C)C)CCCCC2)cc1,inactive: -18.9%
4,CCN1CCCC(OC(=O)C2(O)c3ccccc3C=Cc3ccccc32)C1 (centres undefined),inactive: 3.38%
5,Cc1cc(C(=O)NCC2(N3CCCCC3)CCCCC2)ccc1[N+](=O)[O-],inactive: -17.6%
6,O=C(NCC1(N2CCCCC2)CCCCC1)c1cccc(Br)c1,inactive: -11.6%
7,Cc1ccccc1C(=O)NCC1(N2CCCCC2)CCCCC1,inactive: 16.6%
8,CN(C)c1ccc(C(=O)NCC2(N(C)C)CCCCC2)cc1,inactive: -27.6%
9,CN(C)C1CCCC1OC(=O)C(O)(c1ccccc1)c1ccccc1 (centres undefined),inactive: -1.35%
10,CCN(CC)CC(C)C(C)OC(=O)C(O)(c1ccccc1)c1ccccc1 (centres undefined),inactive: 10.5%
11,COc1cc(SC)ccc1C(=O)NCC1(N(C)C)CCCCC1,inactive: 11%
12,CC(C)N1C(=O)CC2(CCN(CCOC(=O)C(O)(c3ccccc3)c3ccccc3)CC2)C1=O,inactive: -4.82%
13,Cc1ccc(C(=O)NCC2(N3CCCCC3)CCCCC2)cc1,inactive: 2.27%
14,O=C(NCC1(N2CCCCC2)CCCCC1)c1cc([N+](=O)[O-])ccc1Cl,inactive: 3.41%
15,CN1[C@@H]2CC[C@H]1CC(OC(=O)C(O)(c1ccccc1)c1ccccc1)C2 (some centres undefined),inactive: 3.6%
16,COc1ccc(Br)c(C(=O)NCC2(N3CCCCC3)CCCCC2)c1,inactive: -10.8%
17,CC(C)Oc1ccc(C(=O)NCC2(N(C)C)CCCCC2)cc1,inactive: -12.4%
18,CN(C)c1cccc(C(=O)NCC2(N(C)C)CCCCC2)c1,inactive: 1.15%
19,O=C(OC1CN2CCC1CC2)C(CO)(c1ccccc1)c1ccccc1 (centres undefined),inactive: -40.4%
20,COc1cccc(C(=O)NCC2(N3CCCCC3)CCCCC2)c1,inactive: 2.49%
21,COc1ccc(Cl)cc1C(=O)NCC1(N(C)C)CCCCC1,inactive: 13.2%
22,O=C(NCC1(N2CCCCC2)CCCCC1)c1cccc(Cl)c1,inactive: 2.27%
23,CN(C)C1(CNC(=O)c2ccc(Br)cc2)CCCCC1,inactive: 26%
24,COc1cc(C(=O)NCC2(N(C)C)CCCCC2)c([N+](=O)[O-])cc1OC,inactive: 7.09%
